From publication PMC4573928 (Cancer chemotherapy and pharmacology, 2015)

Conditions: cynomolgus monkey, in vivo, iv, 30 mg/kg

For 3, 4, 5, 6-tetrahydrouridine [THU], which “Half-life of THU” value is on record?
Its value is 3.38 to 4.13 h.
